Test results as given in patent US10011602B2, “Immunological reagents and uses therefor” (THE UNIVERSITY OF MELBOURNE, priority 2012, dated 2018).

Assays:
human PBMC MAIT cells = test: MR1 tetramer staining of human PBMCs (flow cytometry); assay type: cell-based; settings: PE-streptavidin tetramers; D5, CD161 co-staining
Experimental: Biotinylated MR1 (produced in either of the 2 methods mentioned above) is used to make tetramers by the addition of biotinylated MR1 to PE Streptavidin (#554061, BD Pharmingen) in a 4:1 molar ratio. PE Streptavidin is added sequentially in 1/10 aliquots to biotinylated MR1 at 10 minute intervals to ensure efficient tetramization.
Human MAIT cells are identified as being D5-positive (D5 mAb stains Vα7.2,-positive T cells; Vα7.2 is the invariant Vα-chain utilized by human MAIT cells) and CD161-positive. Human PBMCs were stained with CD3-PE-Cy7, CD8-PerCP, CD4-APC-Cy7, CD161-APC specific mAbs; as well as the anti-Vα7.2-FITC mAb D5 (generated in-house; human MAIT cells utilize the Vα7.2 alpha chain) and PE-labeled tetramers of mouse MR1-β2m-acetyl-6-Formyl Pterin (mouse MR1 had been refolded with either 6-formyl pterin or acetyl-6-formyl pterin). 10-20% of D5-positive, CD161-positive cells stained with tetramers of mouse MR1-β2m-acetyl-6-Formyl Pterin, depending on source of patient PBMCs.

[1] = tested on: Jurkat-MAIT-TRBV6-1 cell line; test: MR1 tetramer staining of Jurkat-MAIT-TRBV6-1 cell line; assay type: cell-based, human
Description: Wild-type human MR1 containing a C-terminal cysteine can be refolded with the addition of 5-amino-6-D-ribitylamino-uracil and pyruvaldehyde, using the standard refolding conditions described above, and then purified using the standard methods also described above. MR1 refolded in this way has rRL-6-CH2OH bound as determined by X-ray crystallography structural studies, and by electrospray ionization time-of-flight (ESI TOF) mass spectrometry. To produce tetramers, this MR1-rRL-6-CH2OH is reduced for 15 minutes by the addition of DTT to 5 mM final concentration, following which excess DTT is removed by passage over a PD-10 column (GE Healthcare) in PBS, and concentrated in a VIVASPIN 6 (Sartorius) centrifugal concentrator to 200 ul. MR1-rRL-6-CH2OH is then biotinylated with Maleimide-PEG2 biotin (Thermoscientific) at a 30:1 molar excess of biotin:protein at 4° C. in the dark overnight. Excess biotin is removed by passing biotinylated protein through an S200 10/300 GL (Healthcare) gel filtration column in Tris buffered saline (pH 8.0), prior to formation of tetramers by addition to PE Streptavidin (#554061, BD Pharmingen). […]

soluble MAIT TCR = test: Complexation of MR1-ligand with soluble MAIT TCR; assay type: binding, human; settings: separated from monomeric MAIT TCR and uncomplexed MR1
Description: For efficient production of MR1 tetramers with the potent stimulating ligand rRL-6-CH2OH, mutant MR1 containing a Lysine-43-Alanine mutation (Lys43Ala-MR1, and containing a C-terminal cysteine) is first refolded (in the absence of a ligand: “empty”, but otherwise using the standard refolding conditions described above, and then purified using the standard methods described previously. Refolded and purified empty Lys43Ala-MR1 can subsequently be loaded with rRL-6-CH2OH in the following manner: empty Lys43Ala-MR1 is incubated in the presence of 130× molar excess of rRL-6-CH2OH for 4 hours at room temperature in the dark. […] Additionally, novel re-arranged TRAV1-2-TRAJ12 and TRAV1-2-TRAJ20 alpha chains have been detected in tetramer-positive PBMCs. […]
Wild-type human MR1 containing a C-terminal cysteine can be refolded with the addition of 5-amino-6-D-ribitylamino-uracil and pyruvaldehyde, using the standard refolding conditions described above, and then purified using the standard methods also described above. MR1 refolded in this way has rRL-6-CH2OH bound as determined by X-ray crystallography structural studies, and by electrospray ionization time-of-flight (ESI TOF) mass spectrometry. […]

MAIT TCR (TRBV6-1) = test: Surface plasmon resonance (SPR) of MR1-ligand complexes with soluble wild-type MAIT TCR; assay type: binding, human; settings: wild-type MAIT TCR utilizing TRBV6-1 (6-1); read-out: Kd (dissociation constant), SPR
Description: Wild-type human MR1 containing a C-terminal cysteine can be refolded with the addition of 5-amino-6-D-ribitylamino-uracil and pyruvaldehyde, using the standard refolding conditions described above, and then purified using the standard methods also described above. MR1 refolded in this way has rRL-6-CH2OH bound as determined by X-ray crystallography structural studies, and by electrospray ionization time-of-flight (ESI TOF) mass spectrometry. To produce tetramers, this MR1-rRL-6-CH2OH is reduced for 15 minutes by the addition of DTT to 5 mM final concentration, following which excess DTT is removed by passage over a PD-10 column (GE Healthcare) in PBS, and concentrated in a VIVASPIN 6 (Sartorius) centrifugal concentrator to 200 ul. MR1-rRL-6-CH2OH is then biotinylated with Maleimide-PEG2 biotin (Thermoscientific) at a 30:1 molar excess of biotin:protein at 4° C. in the dark overnight. Excess biotin is removed by passing biotinylated protein through an S200 10/300 GL (Healthcare) gel filtration column in Tris buffered saline (pH 8.0), prior to formation of tetramers by addition to PE Streptavidin (#554061, BD Pharmingen). […] In the same manner human MR1 containing a C-terminal cysteine can be refolded with the addition of 5-amino-6-D-ribitylamino-uracil, and subsequently purified by fast protein liquid chromatography (FPLC) to yield MR1 refolded with a novel ribityllumazine metabolite, reduced 7-hydroxy-ribityllumazine (rRL-7-OH). The identity of rRL-7-OH bound to MR1 was confirmed by ESI TOF mass spectrometry, and by determining its structure using X-ray crystallography. The identity of rRL-7-OH bound to MR1 was also confirmed by refolding wild-type MR1 with 5-amino-6-D-ribitylamino-uracil and ^13C-glycolaldehyde to yield MR1-^13C-rRL-7-OH. […] In addition, tetramers have been prepared from mouse wild-type MR1-rRL-6-CH2OH (containing a C-terminal cysteine), refolded and purified using 5-amino-6-D-ribitylamino-uracil and pyruvaldehyde.

[2] = molecular target: mutant Y95F MAIT TCR (α-chain Y95F mutation; 6-1 Y95F); test: Surface plasmon resonance (SPR) of MR1-ligand complexes with mutant Y95F MAIT TCR; assay type: binding, human; settings: mutant Y95F MAIT TCR (6-1 Y95F)

Row | Substance | Tetramer staining of human PBMC MAIT cells (human PBMC MAIT cells) | Kd (MAIT TCR (TRBV6-1)) [µM] | further results
1 | human Leucine151Alanine MR1 refolded with 6-FP: tetramers from human Leucine151Alanine MR1 (BirA peptide-tagged) refolded with 6-FP | stain a proportion |  | 
2 | rRL-6-CH2OH-loaded Lys43Ala-MR1 tetramers: PE-streptavidin tetramers of human Lys43Ala-MR1 loaded with rRL-6-CH2OH | identify a CD161-positive, D5-positive |  | 
3 | MR-rRL-7-OH tetramers: PE-streptavidin tetramers of human MR1-rRL-7-OH | identify the same CD161-positive population |  | Tetramer staining of Jurkat-MAIT-TRBV6-1 cell line [1]: comparable staining
4 | MR1-rRL-6-CH2OH: wild-type human MR1 (C-terminal cysteine) refolded with 5-amino-6-D-ribitylamino-uracil and pyruvaldehyde, rRL-6-CH2OH bound |  | 1.65 | Complexation with soluble MAIT TCR (soluble MAIT TCR): capable of complexation
5 | MR1-rRL-7-OH: wild-type human MR1 refolded with rRL-7-OH |  | 5.64 ± 0.4 | Kd ([2]; read-out: Kd (dissociation constant), SPR): 48.2 ± 3.6 µM
6 | human MR1-rRL-6-CH2OH tetramers: PE-streptavidin tetramers of human wild-type MR1-rRL-6-CH2OH |  |  | Tetramer staining of Jurkat-MAIT-TRBV6-1 cell line [1]: comparable staining
7 | Lys43Ala-MR1 loaded with rRL-6-CH2OH: human Lys43Ala mutant MR1 refolded empty, then loaded with rRL-6-CH2OH |  |  | Complexation with soluble MAIT TCR (soluble MAIT TCR): capable of complexation
8 | MR1-6-FP: MR1 refolded with 6-FP; negative control in SPR |  | > 300 | Kd (dissociation constant), SPR [2]: N.B
